Reference: patent US20230118024A1 (Chugai, published 2023)

Tests used:
[1] = target: T1, HLA-DQ2.5/Mycobacterium bovis peptide complex on Ba/F3 cells (human; Mycobacterium bovis, UniProt P01909 24-254); test: FACS, FIG. 27
[2] = target: T2, HLA-DQ2.5/Hepatitis B virus peptide complex on Ba/F3 cells (human; Hepatitis B virus, UniProt P01909 24-254); test: FACS, FIG. 28
[3] = target: T2, HLA-DQ2.5/Hepatitis B virus peptide …; test: FACS
[4] = target: T1, HLA-DQ2.5/Mycobacterium bovis peptide …; test: FACS
[5] = target: T3, HLA-DQ2.5/salmonella peptide complex on Ba/F3 cells (human; salmonella, UniProt P01909 24-254); test: FACS
[6] = target: T3, HLA-DQ2.5/salmonella peptide complex on …; test: FACS, FIG. 26
[7] = target: T4, HLA-DQ2.5 on HLA-DQ2.5 positive PBMC-B cells (human, UniProt P01909 24-254; P01920 33-261); test: FACS
T4 construct: also called DQ2.5 + PBMC; HLA-DQ2.5+PBMC B cell
T4 MHC II alpha: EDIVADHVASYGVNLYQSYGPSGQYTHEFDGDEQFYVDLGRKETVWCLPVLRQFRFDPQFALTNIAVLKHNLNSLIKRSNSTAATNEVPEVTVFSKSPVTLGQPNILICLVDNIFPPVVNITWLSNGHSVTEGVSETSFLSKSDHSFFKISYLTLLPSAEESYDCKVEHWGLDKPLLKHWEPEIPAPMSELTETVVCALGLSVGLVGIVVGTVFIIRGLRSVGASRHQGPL
T4 MHC II beta: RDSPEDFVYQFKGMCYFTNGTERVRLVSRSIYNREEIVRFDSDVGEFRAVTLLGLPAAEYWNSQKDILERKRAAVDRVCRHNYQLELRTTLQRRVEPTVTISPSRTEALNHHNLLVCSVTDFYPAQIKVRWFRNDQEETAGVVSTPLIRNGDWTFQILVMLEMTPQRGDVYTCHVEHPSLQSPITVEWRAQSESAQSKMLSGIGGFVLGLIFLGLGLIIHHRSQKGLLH

[8] = target: T5, HLA-DQ2.5 on Ba/F3 cells (not in the form of a complex with a linked peptide) (human, UniProt P01909 24-254; P01920 33-261); test: FACS
T5 construct: also called Ba/F3-HLA-DQ2.5; No peptide
T5 MHC II alpha: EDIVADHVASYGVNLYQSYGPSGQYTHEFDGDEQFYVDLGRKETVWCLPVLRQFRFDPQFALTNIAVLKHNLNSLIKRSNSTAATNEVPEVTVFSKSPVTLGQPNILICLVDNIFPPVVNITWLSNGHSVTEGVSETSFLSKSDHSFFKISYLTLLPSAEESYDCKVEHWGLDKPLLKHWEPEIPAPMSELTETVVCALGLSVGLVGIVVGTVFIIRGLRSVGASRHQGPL
T5 MHC II beta: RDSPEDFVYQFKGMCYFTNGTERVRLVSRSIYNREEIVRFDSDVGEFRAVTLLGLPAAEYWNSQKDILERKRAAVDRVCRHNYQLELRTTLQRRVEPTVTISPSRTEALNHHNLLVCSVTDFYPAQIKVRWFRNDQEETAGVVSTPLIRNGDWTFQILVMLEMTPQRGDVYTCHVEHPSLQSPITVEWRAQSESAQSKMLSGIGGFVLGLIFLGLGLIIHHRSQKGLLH

HLA-DQ7.5 on Ba/F3 cells = target: T6, HLA-DQ7.5 on Ba/F3 cells (human, UniProt P01909 24-254; P01920 33-261); test: FACS, FIG. 32
T6 construct: also called Ba/F3-HLA-DQ7.5

[9] = target: T7, HLA-DQ2.5/alpha 1b gliadin peptide complex on Ba/F3 cells (human; wheat); test: FACS
T7 construct: also called Ba/F3-HLA-DQ2.5/alpha 1b gliadin peptide

| Binder | binding result [1] | binding result [2] | FIG. 30 FACS value (IC17=0, DQN0139bb=100) [3] | FIG. 30 FACS value (IC17=0, DQN0139bb=100) [4] | FIG. 30 FACS value (IC17=0, DQN0139bb=100) [5] | binding result [6] | FIG. 30 FACS value (IC17=0, DQN0139bb=100) [7] | FIG. 30 FACS value (IC17=0, DQN0139bb=100) [8] | binding result (HLA-DQ7.5 on Ba/F3 cells) | FIG. 30 FACS value (IC17=0, DQN0139bb=100) [9] |
| --- | --- | --- | --- | --- | --- | --- | --- | --- | --- | --- |
| DQN0282ff (antibody, human IgG1, kappa, V domains shown, also called DQN0282Hf; DQN0282Lf) VH: QSVEESGGRLVTPGTPLTLSCKASGFDFSIYYMSWVRQAPGKGLEWIGVINSGGGVTWYASWVKGRFTISKTSTTVDLKITSPTTEDTATYFCARLGDSNHYDLWGPGTLVTVSS VL: AYDMTQTPSSVSAAVGGTVTIKCQASETISSYLAWYQQKPGQRPQLLIYDASNLASGVPSRFKGSGSGTEFTLTISDLECADAATYYCQTHYYITSTTFGGGTKVEIKR | no binding (tested: 10 microgram/mL) | no binding (tested: 10 microgram/mL) | 1.9 | 2.4 | 2 | no binding (tested: 10 microgram/mL) | – | – | – | – |
| DQN0344xx (antibody, human IgG1, kappa, V domains shown, also called DQN0344Hx; DQN0344Lx) VH: QSLEESGGGLVKPGGTLTLTCTASGFSFSSSYWMCWVRQAPGKGLEWVACVYGGSDTTYYASWTKGRFTISKGSSTTVALQVTSLTAADTATYFCARDPLNYYYYGELNLWGPGTLVTVSS VL: AVVLTQTASPVSAAVGGTVTIRCQATENIYSGLAWYQQKPGQPPKVLIYYVSTLASGVPSRFKGSGSGTEYTLTISGVQCDDAATYYCQTYHDISNVTFGGGTKVEIKR | no binding (tested: 10 microgram/mL) | no binding (tested: 10 microgram/mL) | -0.1 | – | -0.1 | no binding (tested: 10 microgram/mL) | -0.1 | – | – | – |
| DQN0334bb (antibody, human IgG1, kappa, V domains shown, also called DQN0334Hb; DQN0334Lb) VH: QQQLEESGGDLVQPEGSLTLTCKASGFDFSFNAMCWVRQAPGRGPEWIACIYNGNGSTYYASWAKGRFTISKTSSTSVTLQMTSLTAADTATYFCARGGYGLGYAGYGDVNYFNLWGPGTLVTVSS VL: AVVLTQTASPVSAPVGGTVTIKCQASEDIYFLLAWYRQKPGQPPKLLIYGASTLASGVPSRFKGSGSGTEYTLTISDLECADAATYYCQSYWYGDSGPNTFGGGTKVEIKR | no binding (tested: 10 microgram/mL) | no binding (tested: 10 microgram/mL) | 0.1 | 0.3 | 0 | no binding (tested: 10 microgram/mL) | – | – | – | – |
| DQN0225dd (antibody, human IgG1, kappa, V domains shown, also called DQN0225Hd; DQN0225Ld) VH: QSLEESGGGLVKPGGTLTLTCTASGFSFSSAYYMCWVRQAPGKGLEWIACIYVGSGSTYYASWAQGRCTISKASSTTVTLQMTSLTAADTATYFCARDPLIYYYYGELNLWGPGTLVTVSS VL: AVVLTQTASPVSAPVGGTVTIKCQASEDISSNLAWYQQKPGQRPKVLIYSASTLASGVSSQFKGSGSGTQFTLTISDLECADAATYYCQSYYDISSVTFGGGTKVEIKR | no binding (tested: 10 microgram/mL) | no binding (tested: 10 microgram/mL) | 1 | 0 | -0.2 | no binding (tested: 10 microgram/mL) | – | – | – | – |
| DQN0271hh (antibody, human IgG1, kappa, V domains shown, also called DQN0271Lh) VH: QSLEESGGGLVKPGASLTLTCKASGFSFSSGYYMCWVRQAPGKGLEWIACIYAGSPDLTYYATWAKGRLTISTTSSTTVTLQLTSLTAADTATYFCARDPGNWGGYDDVRLWGPGTLVTVSS VL: AQVLTQTPSPVSAAVGGTVTISCQSSQSIYSNYLSWFQQKTGQPPKLLIYRASTLASGVPSRFKGSGSGTEFTLTISGVECDDAATYYCQGYYSGAIWTFGGGTKVEIKR | no binding (tested: 10 microgram/mL) | no binding (tested: 10 microgram/mL) | -0.1 | 0.1 | -0.1 | no binding (tested: 10 microgram/mL) | – | – | – | – |
| DQN0324hh (antibody, human IgG1, kappa, V domains shown, also called DQN0324Lh) VH: QSLEESGGDLVKPGASLALTCTASGFSLINNYYMCWVRQAPGKGLEWIACIYAGLGGWTYYASWAKGRFTISKTSSTTVTLQMSSLTVADAATYFCARAATTYYHFNLWGPGTLVTVSS VL: AVVLTQTESPVSAAVGDTVTIKCQASQSIGNALAWYQQKPGQPPKLLIYDASTLASGVPSRFKGSGSGTQFTLTISDLECADAATYYCQSYDYGSSADTYTFGGGTKVEIKR | no binding (tested: 10 microgram/mL) | no binding (tested: 10 microgram/mL) | -0.1 | -0.1 | -0.1 | no binding (tested: 10 microgram/mL) | – | – | – | – |
| DQN0370hh (antibody, human IgG1, kappa, V domains shown, also called DQN0370Lh) VH: QSLEESGGGLVKPGGPLTLTCTASGFSFSSAYYMCWVRQAPGKGLEWIACIYVGSGSTYYTSWAKGRFTISKVSSTTMTLQMTSLTAADTATYFCARDPLIYYYYGELNLWGPGTLVTVSS VL: AVVLTQTASPVSAPVGGTVTIKCQASEDIYSNLAWYQQKPGQRPKVLIYSASTLASGVSSRFKGSRSGTEYTLSITDLGCADAATYYCQAYYDIGGVTFGGGTKVEIKR | no binding (tested: 10 microgram/mL) | no binding (tested: 10 microgram/mL) | 0 | 0 | -0.1 | no binding (tested: 10 microgram/mL) | -0.1 | 0 | – | – |
| DQN0089ff (antibody, V domains shown, also called DQN0089Hf; DQN0089Lf) VH: QEQVVEYGGDLVQPEGSLTLTCKASGLDFSSTYYMCWVRQAPGKGLEWIGCIYGGSSDSTYYASWAKGRFTISKTSPTTVTLQMTSLTAADTATHFCATYDYGAVGYDLWGPGTLVTVSS VL: EVVVTQTPASVEVAVGGTVTIKCQASQNISPYLSWYQQKPGQPPKLLIYKASTLASGVSSRFKGSGSGTQFTLTISDLECADAATYYCQNNYGVSINYGHTFGGGTKVEIK | – | – | – | – | – | – | – | 118 | no binding (tested: 10 microgram/mL) | – |
| DQN0235ee (antibody, human IgG1, kappa, V domains shown, also called DQN0235He; DQN0235Le) VH: QQQLEESGGGLVKPGGTLTLTCKAGIDFSTYYYMCWVRQAPGKRPEWIACIFDGDGSTYYASWVNGRFTISKASSTTVTLRMTSLTAADTATYFCARSAGGSSSFGYFNLWGPGTLVTVSS VL: AYDMTQTPSSVSAAVGGTVTIKCQASQSISSSYLAWYHQKPGQSPKLLIYSASTLASGVPSRFKGSGSGTEFTLTISDLACADAATYYCQSYYYFSSNAWHTFGGGTKVEIKR | – | – | – | – | – | – | – | – | – | 66.9 |
